# Data published in patent US20190365710A1, “METHODS OF TREATING CANCER” (GlaxoSmithKline Intellectual Property Development Limited, priority 2016, published 2019).
# The chains behind the UniProt entries cited, without tags or fusion partners. Where a name states a change or a piece, a line headed by the entry shows the natural chain unless it says otherwise.
# UniProt Q96LA8, whole entry: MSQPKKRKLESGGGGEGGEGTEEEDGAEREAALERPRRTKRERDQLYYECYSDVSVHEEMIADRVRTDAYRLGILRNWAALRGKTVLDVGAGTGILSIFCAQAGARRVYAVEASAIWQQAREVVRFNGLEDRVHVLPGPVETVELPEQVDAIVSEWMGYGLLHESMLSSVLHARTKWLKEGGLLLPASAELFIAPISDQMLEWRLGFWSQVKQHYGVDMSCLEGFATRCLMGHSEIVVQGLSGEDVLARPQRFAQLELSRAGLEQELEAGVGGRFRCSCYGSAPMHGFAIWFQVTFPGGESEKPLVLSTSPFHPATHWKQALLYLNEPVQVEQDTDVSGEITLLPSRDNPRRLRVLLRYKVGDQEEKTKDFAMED
# UniProt Q9NR22, whole entry: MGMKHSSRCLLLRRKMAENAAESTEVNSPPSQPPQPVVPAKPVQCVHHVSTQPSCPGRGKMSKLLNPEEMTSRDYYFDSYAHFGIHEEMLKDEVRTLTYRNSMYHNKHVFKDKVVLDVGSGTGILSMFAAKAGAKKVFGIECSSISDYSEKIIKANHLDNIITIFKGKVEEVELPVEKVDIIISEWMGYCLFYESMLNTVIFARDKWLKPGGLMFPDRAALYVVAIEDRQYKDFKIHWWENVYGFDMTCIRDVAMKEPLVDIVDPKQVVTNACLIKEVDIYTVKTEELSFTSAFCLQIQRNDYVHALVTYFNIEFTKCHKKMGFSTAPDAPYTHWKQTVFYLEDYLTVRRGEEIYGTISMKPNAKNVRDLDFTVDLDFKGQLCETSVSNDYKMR
# UniProt Q86X55: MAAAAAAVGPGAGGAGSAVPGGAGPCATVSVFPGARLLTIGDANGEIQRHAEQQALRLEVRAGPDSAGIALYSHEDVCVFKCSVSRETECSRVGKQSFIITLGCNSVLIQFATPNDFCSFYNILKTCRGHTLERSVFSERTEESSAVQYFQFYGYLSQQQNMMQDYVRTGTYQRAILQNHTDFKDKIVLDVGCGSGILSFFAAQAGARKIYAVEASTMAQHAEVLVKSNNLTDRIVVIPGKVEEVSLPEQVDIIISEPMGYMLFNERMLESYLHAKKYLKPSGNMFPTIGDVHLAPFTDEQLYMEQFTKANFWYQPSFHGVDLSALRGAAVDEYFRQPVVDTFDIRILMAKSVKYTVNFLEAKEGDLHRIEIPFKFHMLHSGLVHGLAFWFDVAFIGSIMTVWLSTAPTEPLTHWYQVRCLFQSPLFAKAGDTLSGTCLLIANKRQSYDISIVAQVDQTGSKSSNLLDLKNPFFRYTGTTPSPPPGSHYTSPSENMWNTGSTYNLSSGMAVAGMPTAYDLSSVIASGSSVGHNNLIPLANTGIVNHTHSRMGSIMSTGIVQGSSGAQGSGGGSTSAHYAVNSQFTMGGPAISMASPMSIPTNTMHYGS
# UniProt O60678: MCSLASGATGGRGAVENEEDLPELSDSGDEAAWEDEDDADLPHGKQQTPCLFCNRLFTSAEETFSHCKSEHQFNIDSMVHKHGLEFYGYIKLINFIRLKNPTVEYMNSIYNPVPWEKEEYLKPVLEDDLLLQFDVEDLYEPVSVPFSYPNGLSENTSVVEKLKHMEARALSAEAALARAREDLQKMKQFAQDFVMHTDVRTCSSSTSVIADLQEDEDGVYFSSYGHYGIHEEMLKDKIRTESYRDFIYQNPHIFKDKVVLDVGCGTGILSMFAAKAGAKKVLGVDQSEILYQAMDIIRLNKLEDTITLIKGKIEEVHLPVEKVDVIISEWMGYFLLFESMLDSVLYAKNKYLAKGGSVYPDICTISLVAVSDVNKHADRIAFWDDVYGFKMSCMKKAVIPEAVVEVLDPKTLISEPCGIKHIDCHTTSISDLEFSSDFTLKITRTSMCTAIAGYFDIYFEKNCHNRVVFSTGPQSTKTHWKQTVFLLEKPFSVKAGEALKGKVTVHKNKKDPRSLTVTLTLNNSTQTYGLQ
# Assays:
# PRMT6 = PRMT6 (Homo sapiens, UniProt Q96LA8); settings: increasing Enzyme:SAM:Compound A preincubation times
# PRMT8 = PRMT8 (Homo sapiens, UniProt Q9NR22); settings: increasing Enzyme:SAM:Compound A preincubation times
# PRMT4 = PRMT4 (Homo sapiens, UniProt Q86X55)
# PRMT3 = PRMT3 (Homo sapiens, UniProt O60678)
# [1] = 60 minute SAM:Enzyme:Compound A preincubation
# [2] = increasing Enzyme:SAM:Compound A preincubation times
structure (smiles),measurement,setting,value
CCOCC1(COCC)CCC(c2n[nH]cc2CN(C)CCNC)CC1 [Compound A],time dependence of inhibition,PRMT6,time dependent inhibitor
same,time dependence of inhibition,PRMT8,time dependent inhibitor
same,inhibition of activity,PRMT4; [1],inhibited the activity
same,time dependence of inhibition,PRMT4; [2],time dependent inhibitor
same,inhibition of activity,PRMT3; [1],inhibited the activity
same,time dependence of inhibition,PRMT3; [2],no time dependent behavior
